{"sequences": {"note": "Protein sequences, listed by entry. Tags and fused reporters are not part of them.", "UniProt P21554, whole entry": "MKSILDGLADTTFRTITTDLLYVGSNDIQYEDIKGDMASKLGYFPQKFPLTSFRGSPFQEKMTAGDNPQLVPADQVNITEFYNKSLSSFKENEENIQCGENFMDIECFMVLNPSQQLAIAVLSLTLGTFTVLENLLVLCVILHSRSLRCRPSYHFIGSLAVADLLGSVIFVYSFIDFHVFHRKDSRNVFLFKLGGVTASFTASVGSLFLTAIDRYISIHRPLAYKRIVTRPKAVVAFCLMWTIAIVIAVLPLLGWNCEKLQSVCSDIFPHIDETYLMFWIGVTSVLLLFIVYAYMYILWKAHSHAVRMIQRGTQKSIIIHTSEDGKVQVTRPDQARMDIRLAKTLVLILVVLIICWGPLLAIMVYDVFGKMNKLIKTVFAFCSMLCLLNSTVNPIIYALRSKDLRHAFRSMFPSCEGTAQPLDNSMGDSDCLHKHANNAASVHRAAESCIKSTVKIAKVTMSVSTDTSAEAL"}, "source": "ChEMBL document CHEMBL5042498", "about": "“Development of 3-(4-Chlorophenyl)-1-(phenethyl)urea Analogues as Allosteric Modulators of the Cannabinoid Type-1 Receptor: RTICBM-189 is Brain Penetrant and Attenuates Reinstatement of Cocaine-Seeking Behavior” (J Med Chem, 2022)", "data": [{"target": "Cannabinoid receptor 1 (Homo sapiens, UniProt P21554)", "assay": "Agonist activity at human CB1 receptor CP55940-stimulated calcium mobilization at 10 uM incubated for 15 mins FLIPR assay relative to control", "assay_type": "functional", "method_in_brief": "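Agonist screen in CHO-RD-HGA16 cells stably expressing hCB1, loaded with Calcium 5 dye for 45 min at 37 °C and pretreated with buffer vehicle. Test compound is added at a single 10 μM concentration by FLIPR Tetra. Fluorescence is read every 1 s for 90 s (ex/em 485/525 nm). RFU are expressed as % of CP55,940 Emax.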", "units": {"Emax": "%"}, "values": [{"molecule": "Cc1cc(C)cc(CCNC(=O)Nc2ccc(Cl)cc2)c1", "Emax": "< 30"}, {"molecule": "O=C(NCCc1cccc(OC(F)(F)F)c1)Nc1ccc(Cl)cc1", "Emax": "< 30"}, {"molecule": "O=C(NCCc1cccc(Br)c1)Nc1ccc(Cl)cc1", "Emax": "< 30"}, {"molecule": "Cc1ccc(CCNC(=O)Nc2ccc(Cl)cc2)cc1C", "Emax": "< 30"}, {"molecule": "O=C(NCCc1ccccc1)Nc1ccc(Cl)cc1", "Emax": "< 30"}, {"molecule": "N#Cc1cccc(CCNC(=O)Nc2ccc(Cl)cc2)c1", "Emax": "< 30"}, {"molecule": "O=C(NCCc1ccc(N2CCCCC2)cc1)Nc1ccc(Cl)cc1", "Emax": "< 30"}, {"molecule": "O=C(NCCc1cc(Cl)cc(Cl)c1)Nc1ccc(Cl)cc1", "Emax": "< 30"}]}]}
